From PubChem BioAssay AID485347 (National Center for Advancing Translational Sciences (NCATS), 2010)
The list shows a part of the results, in another mix than the full data. The source made the active and inactive calls.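 The calls were made as follows: active = potentiation over 3 SD above the plate norm (cut at about 30% in these data); inactive = the rest.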

Amino acid sequences for entries named in this document (tags omitted).
UniProt P14416, whole entry: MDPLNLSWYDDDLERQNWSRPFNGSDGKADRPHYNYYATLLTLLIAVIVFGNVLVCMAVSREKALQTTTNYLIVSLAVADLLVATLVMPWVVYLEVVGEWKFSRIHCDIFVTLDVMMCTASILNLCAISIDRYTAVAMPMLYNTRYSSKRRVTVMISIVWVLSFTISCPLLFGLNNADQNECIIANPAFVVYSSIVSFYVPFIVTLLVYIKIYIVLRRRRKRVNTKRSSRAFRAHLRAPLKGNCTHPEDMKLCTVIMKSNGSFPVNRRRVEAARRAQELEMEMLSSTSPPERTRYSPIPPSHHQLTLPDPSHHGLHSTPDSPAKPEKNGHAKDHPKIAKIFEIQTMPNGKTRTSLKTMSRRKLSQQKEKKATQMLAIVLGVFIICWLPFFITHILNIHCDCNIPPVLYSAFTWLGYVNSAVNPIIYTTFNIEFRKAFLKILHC

molecular target: D(2) dopamine receptor (Homo sapiens) (UniProt P14416); assay: HTS Assay for Positive Allosteric Modulators of the Human D2 Dopamine Receptor: Primary Screen for Potentiators; conditions: HEK293 T-REx D2, calcium flux, EC20 dopamine potentiation; at 10 µM; stronger effect = higher value; also: 0% is about no effect
From the text: NIH Chemical Genomics Center [NCGC] NIH Molecular Libraries Probe Centers Network [MLPCN] MLPCN Grant: NS064831-01 Assay Submitter (PI): David Sibley Dopamine receptors (DARs) are involved in the etiology and/or therapy of a number of neuropsychiatric and endocrine disorders. For instance, all receptor-based antiparkinsonian drugs work via stimulating the D2 DAR subtype whereas all FDA-approved antipsychotic agents are antagonists of this receptor. […] There are three different types of allosteric modulators that we are seeking, two of which will stimulate or augment receptor signaling, allosteric agonists and potentiators, while the third, allosteric antagonists, will attenuate receptor signaling. The present primary screening assay measures compound potentiation of an EC20 dopamine response by tracking calcium flux in a […], inducible Hek293 Trex D2 cell line.
Freshly passaged cells are plated in 1536 well black, clear bottom plates at a density of 4000 cells/well in 3 ul of complete media containing 1x tetracycline inducer. After an overnight incubation at 30 C in 5% CO2, cells are loaded with 2 ul of the no wash Calcium Assay Kit (ABD Bioquest) and incubated at room temperature for 30 to 90 minutes. A 10 cycle (1 second/cycle) baseline measurement is taken and then the FDSS online 1536 pintool delivers 23 nl of compound library (as well as dopamine controls) to the plate. The plate is measured for kinetically at 1 cycle/sec for 180 seconds and is considered to be the agonist portion of the assay (eg, compounds which activate a positive calcium response during this portion are flagged as potential agonists). Following the 180 second read, 1 ul of an EC20 of dopamine is delivered by an onboard pipette head. Measurements are taken kinetically for an additional 180 seconds.

| SMILES | potentiation |
| --- | --- |
| COc1ccccc1OP(C)(=O)Nc1ccc(Br)cc1 (stereo unspecified) | inactive: -7.65% |
| CN(C)CCOC(=O)C(O)(c1ccccc1)C1CCCC1 (stereo unspecified) | inactive: -20.1% |
| COc1ccc(OP(C)(=O)Nc2ccccn2)cc1 (stereo unspecified) | inactive: -9.84% |
| Cc1c(NP(C)(=O)Oc2ccc(C(C)C)cc2)c(=O)n(-c2ccccc2)n1C (stereo unspecified) | inactive: 11.8% |
| O=[N+]([O-])c1cc([N+](=O)[O-])c(Nc2ccccn2)c([N+](=O)[O-])c1 | inactive: 4.04% |
| CCc1ccc(OP(C)(=O)O)cc1 | inactive: -6.05% |
| CP(=O)(Nc1ccccn1)Oc1ccccc1 (stereo unspecified) | inactive: 11.1% |
| COc1ccccc1OP(C)(=O)Nc1ccc(C)cc1C (stereo unspecified) | inactive: -2.22% |
| Cc1cc(C)cc(OP(C)(=O)Nc2cccc(C(F)(F)F)c2)c1 (stereo unspecified) | inactive: -5.73% |
| COc1ccc(OP(C)(=O)Nc2ccccc2Br)cc1 (stereo unspecified) | inactive: 7.77% |
| COc1ccccc1OP(C)(=O)Nc1ccc(C)c(C)c1 (stereo unspecified) | inactive: 4.03% |
| Cc1nc2ccc3ccccc3c2o1.O=[N+]([O-])c1cc([N+](=O)[O-])c(O)c([N+](=O)[O-])c1 | inactive: 7.03% |
| CP(=O)(Nc1ccc(Cl)cc1Cl)Oc1ccccc1 (stereo unspecified) | inactive: 0.875% |
| CP(=O)(OCCOc1ccccc1)OCCOc1ccccc1 | inactive: 6.13% |
| CP(=O)(OC12CC3CC(CC(C3)C1)C2)OC12CC3CC(CC(C3)C1)C2 | inactive: 2.51% |
| CCOC(=O)c1ccc(NP(C)(=O)Oc2ccc(Cl)cc2)cc1 (stereo unspecified) | inactive: -7.19% |
| CCN(CC)CC(O)COC(=O)C(O)(c1ccccc1)C1CCCCC1 (stereo unspecified) | inactive: 5.1% |
| COc1ccc(OP(C)(=O)Nc2ccc(Br)cc2)cc1 (stereo unspecified) | inactive: 4.39% |
| CP(=O)(Oc1ccccc1)N1CCOC1=O (stereo unspecified) | inactive: 2.06% |
| CCc1ccc(OP(C)(=O)Nc2cccnc2)cc1 (stereo unspecified) | inactive: 23.7% |
| COc1ccccc1OP(C)(=O)Nc1c(C)n(C)n(-c2ccccc2)c1=O (stereo unspecified) | inactive: 10.7% |
| O=C(OCCCN1CCCC1)C(O)(c1ccccc1)C1CCCCC1 (stereo unspecified) | inactive: 9.15% |
| CP(=O)(Nc1ccc(Cl)cc1)Oc1ccc(F)cc1 (stereo unspecified) | inactive: 9.38% |
| COc1ccccc1OP(C)(=O)Nc1ccccc1Br (stereo unspecified) | inactive: 0.814% |
| CC(C)(C)c1ccc(OP(C)(=O)O)cc1 | inactive: -9.47% |
| CP(=O)(Nc1ccc(SC(F)(F)F)cc1)Oc1ccc(F)cc1 (stereo unspecified) | inactive: 6.7% |

| SMILES | potentiation |
| --- | --- |
| CP(=O)(Nc1ccc2c(c1)OCCO2)Oc1ccccc1 (stereo unspecified) | inactive: -22.8% |
| Cc1ccccc1NP(C)(=O)Nc1ccccc1C | inactive: 10.6% |
| COc1ccc(OP(C)(=O)Nc2cccc(Br)c2)cc1 (stereo unspecified) | inactive: 1.99% |
| COc1ccc(NP(C)(=O)Oc2ccccc2OC)cc1 (stereo unspecified) | inactive: 26.2% |
| CN(C)CCOC(=O)C(O)(c1ccccc1)C1CCCCC1 (stereo unspecified) | inactive: -21% |
| Cc1cc(-c2cccc3ccccc23)c(C)cn1.O=[N+]([O-])c1cc([N+](=O)[O-])c(O)c([N+](=O)[O-])c1 | inactive: -8.15% |
| O=[N+]([O-])c1ccc(OP2(=O)COCCO2)cc1 (stereo unspecified) | inactive: 7.81% |
| COc1ccc(OP(C)(=O)Nc2ccc(SC(F)(F)F)cc2)cc1 (stereo unspecified) | inactive: 7.71% |
| CCOC(=O)c1ccc(NP(C)(=O)Oc2ccc(F)cc2)cc1 (stereo unspecified) | inactive: -5.52% |
| CCCCCOc1ccc(NP(C)(=O)Oc2ccc(Cl)cc2Cl)cc1 (stereo unspecified) | inactive: -0.955% |
| CP(=O)(Nc1ccccc1)Oc1ccc(F)cc1 (stereo unspecified) | inactive: 0.457% |
| CC(C)c1ccc(OP(C)(=O)Nc2ccc(SC(F)(F)F)cc2)cc1 (stereo unspecified) | inactive: 11.1% |
| CP(=O)(Nc1ccccc1F)Oc1ccccc1 (stereo unspecified) | inactive: 3.59% |
| O=C(OCCN1CCN(CCOCc2ccccc2)CC1)C(O)(c1ccccc1)c1ccccc1 | inactive: -18.2% |
| COc1ccccc1OP(C)(=O)Nc1cccc(Br)c1 (stereo unspecified) | inactive: -4.48% |
| Cc1cc(C)cc(OP(C)(=O)Nc2ccc(C)cc2C)c1 (stereo unspecified) | inactive: -3.89% |
| CCOC(=O)c1ccc(NP(C)(=O)Oc2cc(C)cc(C)c2)cc1 (stereo unspecified) | inactive: -25.1% |
| Cc1cc(C)cc(OP(C)(=O)Nc2ccccn2)c1 (stereo unspecified) | inactive: -6.09% |
| CP(=O)(Nc1cccc(Br)c1)Oc1ccccc1 (stereo unspecified) | inactive: 8.33% |
| Cc1ccc(C)c(NP(C)(=O)Oc2ccccc2)c1 (stereo unspecified) | inactive: 0.321% |
| CC1=NCCc2c1[nH]c1ccccc21.O=[N+]([O-])c1cc([N+](=O)[O-])c(O)c([N+](=O)[O-])c1 | inactive: -8.41% |
| CC1=C2N=C(C=C3N=C(C(C)=C4[N-][C@@](C)([C@@H]5N=C1[C@](C)(CCC(=O)NC[C@@H](C)OP(=O)([O-])O[C@H]1[C@@H](O)[C@@H](n6cnc7cc(C)c(C)cc76)O[C@@H]1CO)[C@H]5CC(N)=O)[C@@](C)(CC(N)=O)[C@@H]4CCC(N)=O)[C@@](C)(CC(N)=O)[C@@H]3CCC(N)=O)C(C)(C)[C@@H]2CCC(N)=O.[C-]#N.[Co+3] | inactive: 4.42% |
| O=[N+]([O-])c1cc([N+](=O)[O-])c(Nc2nnnn2CCO)c([N+](=O)[O-])c1 | inactive: 13.8% |
| CN1CCCCC1COC(=O)C1(O)c2ccccc2CCc2ccccc21 (stereo unspecified) | inactive: 14.8% |
| COc1ccccc1OP(C)(=O)Nc1c(C)cccc1C (stereo unspecified) | inactive: -0.945% |
| CP(=O)(Nc1ccc(SC(F)(F)F)cc1)Oc1ccccc1 (stereo unspecified) | inactive: 16.6% |

| SMILES | potentiation |
| --- | --- |
| O=[N+]([O-])c1cc([N+](=O)[O-])c(-n2nnc3ccccc32)c([N+](=O)[O-])c1 | inactive: -1.59% |
| Cc1nc2ccc3ccccc3c2s1.O=[N+]([O-])c1cc([N+](=O)[O-])c(O)c([N+](=O)[O-])c1 | inactive: -13.2% |
| CP(=O)(Nc1ccc(SC(F)(F)F)cc1)Oc1ccc(Cl)cc1 (stereo unspecified) | inactive: -7.31% |
| Cc1cccc(C)c1OP(C)(=O)Nc1ccc(SC(F)(F)F)cc1 (stereo unspecified) | inactive: 3.69% |
| CP(=O)(Oc1ccccc1)OC(c1ccccc1)C(F)(F)F (stereo unspecified) | inactive: 13.5% |
| CP(=O)(NC(=O)Nc1ccccc1)Oc1ccccc1 (stereo unspecified) | inactive: 5.8% |
| CCc1ccc(OP(C)(=O)N2CCN(c3ccc([N+](=O)[O-])cc3)CC2)cc1 (stereo unspecified) | inactive: 0.352% |
| Cc1cc(C)cc(OP(C)(=O)Nc2ccc(SC(F)(F)F)cc2)c1 (stereo unspecified) | inactive: 3.91% |
| CCOP(C)(=S)SCC(=O)NC(C)C(=O)O (stereo unspecified) | inactive: -1.18% |
| CCOC(=O)c1ccc(NP(C)(=O)Oc2ccc(OC)cc2)cc1 (stereo unspecified) | inactive: 4.94% |
| CP(=O)(Nc1ccccn1)Oc1ccc(Cl)cc1 (stereo unspecified) | inactive: 0.994% |
| CP(=S)(Nn1cnnc1)Oc1ccccc1 (stereo unspecified) | inactive: -1.29% |
| COc1ccccc1OP(C)(=O)Nc1ccccc1 (stereo unspecified) | inactive: 3.85% |
| CP(=O)(Nc1ccccc1Br)Oc1ccccc1 (stereo unspecified) | inactive: -7.3% |
| O=[N+]([O-])c1cc([N+](=O)[O-])c(Nc2cccnc2)c([N+](=O)[O-])c1 | inactive: 9.83% |
| CC(C)(C)c1ccc(OP(C)(=O)Nc2ccc(SC(F)(F)F)cc2)cc1 (stereo unspecified) | inactive: -3.79% |
| Cc1cccc(C)c1OP(C)(N)=O (stereo unspecified) | inactive: 10% |
| O=[N+]([O-])c1ccc2c(c1)C=Nc1ccccc1O2 | inactive: 3.98% |
| CCOC(=O)c1ccc(NP(C)(=O)Oc2ccccc2)cc1 (stereo unspecified) | inactive: 0.987% |
| COc1ccccc1OP(C)(=O)Nc1ccc(C)cc1 (stereo unspecified) | inactive: 4.01% |
| Cc1ccc(NP(C)(=O)Oc2ccccc2)c(C)c1 (stereo unspecified) | inactive: -6.73% |
| COc1ccc(OP(C)(=O)Nc2cccc(F)c2)cc1 (stereo unspecified) | inactive: -1.6% |
| Cc1cc(C)cc(OP(C)(N)=O)c1 (stereo unspecified) | inactive: 9.08% |
| CCN(CC)CCCOC(=O)C(O)(c1ccccc1)c1ccccc1 | inactive: -2.19% |
